Measurements published in patent publication US20220229068A1, “DETECTION OF PROTEIN TO PROTEIN INTERACTIONS” (THE GOVERNING COUNCIL OF THE UNIVERSITY OF TORONTO, priority 2019, published 2022).

Biological target: T1, EGFR/SHC1 interaction (Homo sapiens, UniProt P00533)
T1 construct: expressed in transfected cells; host or cells: HEK 293 / HEK 293 Flp-In T-Rex (Tet-on)
Assay: SIMPL Western blot, EGFR/SHC1 interaction
Format: cell-based
Conditions: EGFR-IN/IC-SHC1, inhibitor added with tetracycline 6 h before assay

For `COc1cc2ncnc(Nc3cccc(Cl)c3)c2cc1OC` [AG1478], the “SIMPL signal (spliced EGFR-SHC1 band)” value was “diminished with increasing AG1478 concentration” and the “SIMPL signal (spliced EGFR-SHC1 band)” value (listed as AG147830) was “decrease of SIMPL signal”.
